How the values were obtained:
[1] = from known documents (Kirkland 2016; Lasne 1984; Aardema 2006); cited from earlier work
[2] = test system: human iPS cell-derived T lymphocyte; test: In vitro micronucleus test using human iPS cell-derived T lymphocyte (Example 2); details: iPS cell line 12; 33 hr treatment with CytoB; CPA 3 hr with 1% S9; doses of Table 3; Fisher's exact test

SMILES: CN(N=O)C(=N)N[N+](=O)[O-]
- judgment result expected from known information (in vitro micronucleus test) [1]: positive
- judgment result obtained in this Example (in vitro micronucleus test) [2]: positive

— patent publication US20190345536A1, “DETECTION METHOD FOR CHROMOSOMAL ABNORMALITIES AND METHOD FOR EVALUATING INDUCIBILITY” (Sumitomo Chemical Company, Limited, priority 2016, published 2019)
